The nature of one data set: Median toxic dose. The conditions noted are these: in vivo.
Data set [1] in a line: Lowest effective dose, compound administered alone. The conditions noted are these: i.m.
The test system of data set [2] is pain following dental surgery. The experiment in a line: Postoperative dental pain study. The conditions noted are these: for pain intensity (visual analog scale, 240 minute period): patients after dental surgery, i.v., compared to placebo.
Data set [3] relates to seizures evoked by direct stimulation of the amygdala. Kind of data set: Amygdala stimulation seizure model. The conditions noted are these: direct stimulation of the amygdala via implanted electrodes.
The subject of data set [4] is seizures induced by intracerebral injection of S-AMPA. The experiment in a line: S-AMPA induced seizure model. The conditions noted are these: mouse; intravenously 15 minutes prior to S-AMPA (1.25 nmol intracerebral).
Data set [5] is described as follows: Plasma and brain levels of LY293558 after intramuscular injection. The conditions noted are these: 15 mg/kg intramuscular; from 15 minutes.
Data set [6] relates to seizures induced by electrical shock (corneal electrode). Kind of data set: Corneal electrical stimulation seizure model. The conditions noted are these: sc, 30 minute pretreatment.
For data set [7], the system named is ambulations induced by phencyclidine. Kind of data set: Phencyclidine-induced ambulations in catecholamine depleted rats. The conditions noted are these: 3 mg/kg sc, 30 minutes prior to PCP.
Data set [8] relates to capsaicin-induced spontaneous pain, allodynia and hyperalgesia. The experiment in a line: Capsaicin pain crossover study in volunteers.
Data set [9] relates to seizures induced by pentylenetetrazole administration. Kind of data set: Pentylenetetrazole seizure model. The conditions noted are these: 30 minute s.c. pretreatment.
Data set [10] can be described thus: Maximum tolerated dose study in human volunteers. The conditions noted are these: i.v. bolus.
Data set [11] concerns moderate to severe migraine symptoms. The experiment in a line: Acute migraine study. The conditions noted are these: for patients pain free at 2 hours: migraine patients, LY 1.2 mg/kg i.v., sumatriptin subcutaneous.
Data set [12] has as its system tonic extensor seizures, audiogenic stimulus. The experiment in a line: Audiogenic seizure model. The conditions noted are these: audiogenic stimulus 120 dB white noise, 60 s; s.c., 30 minute pretreatment.
A further data set deals with morphine dependent rats. The experiment in a line: Naloxone-precipitated withdrawal in morphine dependent rats, behavior scoring.
For data set [13], the system named is locus coeruleus (LC) neuronal cell firing. The experiment in a line: Locus coeruleus neuronal firing during morphine withdrawal, in vivo electrophysiology. The conditions noted are these: 10 mg/kg; anesthetized animals; withdrawal raised firing from 0.5 Hz to 4 Hz.

Turning to `CCN(CC)CCOC(=O)C1(c2ccccc2)CCCC1`, the “median toxic dose (TD50)” value in the data set “Median toxic dose” came out at 162 mg/kg. For the same compound, in data set [1], the “lowest effective dose (LED)” value was 100 mg/kg.
`O=C(c1ccccc1)c1ccc2n1CCC2C(=O)O` (stereo not shown): the “pain intensity (visual analog scale, 240 minute period)” value in data set [2] is “significantly reduced”.
On to “(3S,4aR,6R,8aR)-6-[2-(1(2)H-tetrazole-5-yl) ethyl]decahydroisoquinoline-3-carboxylic acid”, for which, in [3], the “threshold stimulus for evoking seizures” value is reported as “ineffective”. For the same compound, in the data set “Median toxic dose”, the “median toxic dose (TD50)” value is 20 mg/kg. In addition, the “ED50, proportion of animals experiencing seizures” value in [4] turned out to be 2.95 mg/kg. Moreover, in [5], the “plasma and brain levels” value is “remain measurable to the final time point at 8 hours”. Besides, in [2] (mild to moderate side effects), the incidence of headache turned out to be 40%, the incidence of nausea was 5%, the incidence of sedation is on record as 15% and the “incidence of visual disturbance” value stood at 20%. Also, the “pain intensity (visual analog scale, 240 minute period)” value in [2] is given as “significantly reduced”. Further, the “lowest effective dose (LED)” value in [1] amounted to 15 mg/kg. The “ED50, corneal electrical stimulation seizures” value in [6] is listed as 9 mg/kg. For the same compound, in [7], the “reduction of PCP-induced ambulations” value is given as 52%. For the same compound, the “volunteers with mild visual symptoms” value in [8] (19 of 20 volunteers) is given as 95%. For the same compound, in [8] (volunteers), the “side effect: headache” value was found to be 10% and the “side effect: sedation” value amounted to 40%. For the same compound, the “spontaneous pain and allodynia” value in [8] (volunteers, s.c. capsaicin, 33% and 100% of MTD vs. placebo) is “significantly reduced”. In [8] (volunteers, s.c. capsaicin, both doses), the pinprick hyperalgesia entry is reported as “nominally reduced”. Also, the “ED50, proportion of mice completely protected from seizure” value in data set [9] is listed as 10.3 mg/kg. Also, in data set [10], the “dose at which headache was noted (two individuals)” value is given as 1.8 mg/kg; the “dose at which vision changes and sedation were noted beginning” value is 0.9 mg/kg; the “median MTD” value is given as 1.3 mg/kg. In [10] (escalation to 2.0 mg/kg), the “rating of adverse events” value is given as “mild in all instances”. Besides, the “patients pain free at 2 hours” value in data set [11] is on record as 54%. In data set [11] (two patients), the “recipients experiencing an adverse event (dizziness and sedation)” value is given as 15%. The “ED50, protection from tonic extensor seizures” value in data set [12] is on record as 1.9 mg/kg. Moreover, the “ptosis, chewing, diarrhea, stereotyped head movements and writhing” value in the data set on morphine dependent rats (10 mg/kg s.c.) is on record as “statistically significantly reduced”. In the data set on morphine dependent rats (30 mg/kg s.c.), the “wet dog shakes, lacrimation and salivation” value is “significantly reduced”. The composite withdrawal score entry in the data set with morphine dependent rats (1, 10 or 30 mg/kg s.c., 15 minutes prior to naloxone, 1 hour observation) is recorded as “dose dependent improvement”. For the same compound, the “irritability, digging, jumping, chatter and erection” value in the data set on morphine dependent rats (rat, in vivo) was “nominally lower, but did not reach statistical significance”. The “LC neuronal cell firing during morphine withdrawal” value in [13] was determined as 1 Hz.
sumatriptin: the “patients pain free at 2 hours” value in [11] came to 60%.

The values above are taken from patent US11744829B2, “Methods for treating neurological conditions and exposure to nerve agents” (dated 2023).
